According to patent US6593363B1, “Diterpene derivatives and anti-inflammatory analgesic agents comprising the same” (Sae Han Pharm. Co., Ltd., priority 1998, dated 2003):
pIC50: −log10 of the molar value.

Biological target: T1, COX-2 (Ovis aries, UniProt P79208)
T1 construct: 3 Unit of COX-2 (Layman chemical) that is separated from sheep placenta and purified; purchased Layman chemical (sic); host or cells: sheep placenta (tissue-derived)
T1 sequence (P79208 17-603): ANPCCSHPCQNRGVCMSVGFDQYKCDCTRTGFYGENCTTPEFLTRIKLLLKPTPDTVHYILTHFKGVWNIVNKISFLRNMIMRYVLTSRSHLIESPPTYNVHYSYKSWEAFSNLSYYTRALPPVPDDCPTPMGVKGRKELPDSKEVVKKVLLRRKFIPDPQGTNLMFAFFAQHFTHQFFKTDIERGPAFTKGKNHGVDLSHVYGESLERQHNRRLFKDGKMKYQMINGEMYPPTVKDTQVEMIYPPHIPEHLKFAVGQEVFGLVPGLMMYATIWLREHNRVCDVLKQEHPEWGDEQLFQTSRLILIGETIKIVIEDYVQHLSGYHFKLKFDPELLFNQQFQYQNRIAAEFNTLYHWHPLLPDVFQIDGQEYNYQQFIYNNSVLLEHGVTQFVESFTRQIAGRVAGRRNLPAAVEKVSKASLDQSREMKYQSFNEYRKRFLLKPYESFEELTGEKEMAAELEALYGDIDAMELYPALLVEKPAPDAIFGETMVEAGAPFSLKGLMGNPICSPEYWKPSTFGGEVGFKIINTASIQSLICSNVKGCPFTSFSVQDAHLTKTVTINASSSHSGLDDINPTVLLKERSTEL
Test: Inhibition of PGE2 synthesis by inhibiting COX-2 activity (in vitro, TLC/autoradiography)
Assay type: biochemical
Details: 3 Unit COX-2 from sheep placenta, [1-14C] arachidonic acid, 37° C. for 20 min
Protocol: The inhibition effect of the novel derivatives against PGE2 synthesis was tested in vitro. […] The novel derivatives were synthesized from (−)-pimara-9(11), 15-diene-4-carboxylic acid, which is a diterpene compound isolated from root-bark of Acanthopanax Koreanum.
The mixture was stranded on ice for 5 min. To the mixture, the sample for assay of COX-2 activity was added, and then incubated on ice for 10 min. After preincubation, 0.02 μCi of [1-^14C] arachidonic acid, as an substrate, was added, and reacted at 37° C. for 20 min. For the termination of the reaction, 10 μl of 2 M HCl was added. Prostaglandin produced was extracted with ethylether twice. Two ethylether layers were integrated, and the solvent was evaporated at a 37° C. water-bath. […] PGE2 part of TLC plate developed was observed using autoradiography (PACKARD). The amount of PGE2 decreased by the sample was compared with reference, and then COX-2 inhibition activity of the sample was determined.

C=CC1(C)CC=C2C(CCC3C(C)(CCCCC(=O)O)CCCC23C)C1 (stereo not drawn) [Example 35, 4-Carboxybutyl-(−)-pimara-9(11),15-diene]
pIC50: 4.41
